# Apparent affinities of Ab-14 variants for a coronavirus HR2 peptide

Values reported by Li et al. 2023, doi:10.1038/s41467-023-39022-2 (FLAb copy).

Binding partner: SARS-CoV-2 spike HR2 peptide, sequence PDVDLGDISGINAS.

Ab-14 is the parent antibody, in scFv form: VH, then a 15-residue (Gly4Ser)3 linker, then VL. The light chain is unchanged in all variants.
VH: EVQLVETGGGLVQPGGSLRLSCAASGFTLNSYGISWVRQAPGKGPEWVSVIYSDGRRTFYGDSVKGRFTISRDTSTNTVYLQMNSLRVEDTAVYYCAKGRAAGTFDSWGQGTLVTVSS
VL: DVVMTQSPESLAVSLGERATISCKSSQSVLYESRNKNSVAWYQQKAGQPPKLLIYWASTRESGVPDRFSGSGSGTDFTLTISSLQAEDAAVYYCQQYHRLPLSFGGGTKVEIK

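Phage display of a naive human antibody library on the peptide gave the parent. Designed CDR sequences, proposed from the first random library and measured here. Group labels follow the data file (Ctrl: baseline library sampled from a position-specific scoring matrix, with some repeated check sequences; GPLM: also part of the Gaussian process libraries; Gen: genetic algorithm; a sequence that several methods proposed may carry one label only). AlphaSeq pools MATa yeast showing the antibodies with MATalpha yeast showing the peptide. Mating (16 h, 30 °C) was followed by selection of diploids and sequencing of their barcodes. Each replicate has its own calibration line, from reference interactions of the BCL2 family. Mating was done six times.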

Positions count from residue 1 of the parent VH; G26L puts L in place of G.
Affinities are written as log10 Kd with Kd in nM; a lower number is a better binder.
A pair that was not seen in that replicate is written "nd"; this usually means weak binding, but a binder can also be missed.
Where one sequence has several entries in the source, the replicates are listed entry by entry, parted by semicolons.
Nonspecific signal, from three strains lacking the peptide, appeared in 1% of pairings of all heavy chain designs, centred on 2.08 (5% of these signals below 0.84); values are not corrected for it. For each scFv, signals with the empty controls are counted beside the result.
The authors' rule: three or more of the six replicates give a measured affinity, fewer mean a poor binder.
Values of this round are not directly comparable with the first-round values of the same sequences.

The variant G26L S31R [Ctrl] gave nd, nd, nd, nd, nd, nd (controls 1 of 18).
The variant G33D S53A A101L [Ctrl] gave 1.40, -0.37, 0.39, -0.01, 0.51, 0.07 (controls 0 of 18).
The variant S53A R56K G99D S107H [Ctrl] gave nd, nd, nd, nd, nd, nd (controls 0 of 18).
The variant A101Q [Ctrl] gave 1.55, 1.73, 1.24, 1.35, 1.49, 1.61 (controls 0 of 18).
The variant S53F A102P [Ctrl] gave nd, nd, nd, nd, nd, nd (controls 0 of 18).
The variant R100H [Ctrl] gave 2.29, 1.95, 2.04, 1.56, 1.38, 1.47 (controls 0 of 18).
The variant S31E R100E F105K [Ctrl] gave nd, nd, nd, nd, nd, nd (controls 0 of 18).
The variant T28D R100K A101I [Ctrl+GPLM_Gen] gave 0.61, -0.13, 0.74, 0.27, 0.70, 2.50; 0.21, 0.76, nd, 0.21, 0.26, -0.38 (controls 0 of 36).
The variant T28S R56E F59A R100M A101N [Ctrl] gave 0.24, 0.14, -0.02, 0.36, -0.10, -0.09 (controls 0 of 18).
The variant G26H S53A G61Q [Ctrl] gave 1.26, 1.05, nd, nd, nd, nd (controls 0 of 18).
The variant G99E R100S [Ctrl] gave nd, nd, nd, nd, nd, nd (controls 0 of 18).
The variant F27E R100S A101V D106I [Ctrl] gave 1.75, 1.14, 1.41, 1.34, 1.41, 1.23 (controls 0 of 18).
The variant R56L G61E A101E [Ctrl] gave 0.66, 0.84, 1.03, 1.09, 1.40, 1.72 (controls 0 of 18).
The variant S31D G61T D106L [Ctrl] gave nd, nd, nd, nd, nd, nd (controls 0 of 18).
The variant S63K D106R [Ctrl] gave nd, nd, nd, nd, nd, nd (controls 0 of 18).
The variant S63E R100Q A101L [Ctrl] gave 1.49, 1.58, nd, 1.57, 1.55, nd (controls 0 of 18).
The variant S31E G33S T58C G103L [Ctrl] gave 0.27, nd, nd, 0.90, nd, nd (controls 0 of 18).
The variant F27Y N30T R100I D106S [Ctrl] gave 0.03, -0.28, -0.34, -0.27, -0.04, -0.11 (controls 0 of 18).
The variant S31M R100L F105W [Ctrl] gave nd, nd, nd, nd, nd, nd (controls 0 of 18).
The variant S31E R56F [Ctrl] gave 0.75, 1.36, 1.00, 0.55, 0.44, 0.82 (controls 1 of 18).
The variant F59S K65V A101L [Ctrl] gave 1.23, nd, nd, nd, nd, nd (controls 0 of 18).
The variant S63Y G103K F105D S107I [Ctrl] gave nd, nd, nd, nd, nd, nd (controls 0 of 18).
The variant G26K A101W [Ctrl] gave nd, nd, nd, nd, nd, nd (controls 0 of 18).
The variant T28D A101V [Ctrl+GPLM_Gen] gave 0.47, 0.82, 0.56, 0.34, 0.14, 0.35; 0.36, -0.18, -0.34, -0.35, -0.18, 0.04 (controls 0 of 36).
The variant F27L R100L [Ctrl] gave nd, nd, nd, nd, nd, nd (controls 1 of 18).
The variant R56K G61Q V64F A101L [Ctrl] gave nd, nd, nd, nd, nd, nd (controls 1 of 18).
The variant R56I R100Q A101H [Ctrl] gave nd, nd, nd, nd, 0.76, 1.65 (controls 0 of 18).
The variant T28D R56M A102I T104A [Ctrl] gave nd, nd, nd, nd, nd, nd (controls 1 of 18).
The variant N30E S35Q G99E [Ctrl] gave nd, nd, nd, nd, nd, nd (controls 0 of 18).
The variant G61Q A101H T104S [Ctrl] gave nd, nd, nd, nd, 2.48, nd (controls 0 of 18).
The variant N30M S31N R56Q F59Y A101W [Ctrl] gave nd, nd, nd, nd, nd, nd (controls 0 of 18).
The variant S31Q T58V [Ctrl] gave 1.45, 0.84, 1.34, 1.08, 0.93, 1.43 (controls 4 of 18).
The variant N30S G61T R100G S107P [Ctrl] gave nd, nd, nd, nd, nd, 2.34 (controls 0 of 18).
The variant T28Q N30D S31T F59A T104D S107M [Ctrl] gave nd, nd, nd, nd, nd, nd (controls 0 of 18).